# Data published in PubChem BioAssay AID1626 (SRMLSC, 2009).
# Some of the results follow. Some tests of the compounds listed are not included; inactive here does not mean inactive elsewhere. The source made the active and inactive calls. Rule as the data show it: inconclusive = inhibition above about 80% without an active follow-up result; inactive = below that; test concentration not stated here.
# Experiment: M. tuberculosis H37Rv growth inhibitors, H37Rv strain (AID 1626);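 also: bacteria incubated seven days before Alamar blue readout; 0% = bacteria only wells and 100% = bacteria with antibiotic wells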
# Settings: stronger effect = higher value, concentration not given here
row,SMILES,inhibition
1,COc1cccc(C(=O)NCC2(N3CCCCC3)CCCCC2)c1,inactive: 0.51%
2,O=C(OC1CN2CCC1CC2)C(CO)(c1ccccc1)c1ccccc1 (stereo not given),inactive: -7.18%
3,CN(C)c1cccc(C(=O)NCC2(N(C)C)CCCCC2)c1,inactive: -4.81%
4,O=C(NCC1(N2CCCCC2)CCCCC1)c1cc([N+](=O)[O-])ccc1Cl,inactive: 8.16%
5,CCN(CC)CC(C)C(C)OC(=O)C(O)(c1ccccc1)c1ccccc1 (stereo not given),inactive: -6.39%
6,CC(C)N1C(=O)CC2(CCN(CCOC(=O)C(O)(c3ccccc3)c3ccccc3)CC2)C1=O,inactive: -9.27%
7,CN(C)C1CCCC1OC(=O)C(O)(c1ccccc1)c1ccccc1 (stereo not given),inactive: -2.76%
8,Cc1ccccc1C(=O)NCC1(N2CCCCC2)CCCCC1,inactive: 1.95%
9,C=CCN1CCN(CCOC(=O)C(O)(c2ccccc2)c2ccccc2)CC1,inactive: -1.82%
10,CCN1CCCC(OC(=O)C2(O)c3ccccc3C=Cc3ccccc32)C1 (stereo not given),inactive: 11.9%
